# Assay results taken from PubChem BioAssay AID488977 (Johns Hopkins Ion Channel Center, 2010).
# Amino acid sequences for entries named in this document (tags omitted). A change or cut given only in a name is not applied to a line headed by its entry.
# UniProt Q9GZV3, whole entry, stated change not applied: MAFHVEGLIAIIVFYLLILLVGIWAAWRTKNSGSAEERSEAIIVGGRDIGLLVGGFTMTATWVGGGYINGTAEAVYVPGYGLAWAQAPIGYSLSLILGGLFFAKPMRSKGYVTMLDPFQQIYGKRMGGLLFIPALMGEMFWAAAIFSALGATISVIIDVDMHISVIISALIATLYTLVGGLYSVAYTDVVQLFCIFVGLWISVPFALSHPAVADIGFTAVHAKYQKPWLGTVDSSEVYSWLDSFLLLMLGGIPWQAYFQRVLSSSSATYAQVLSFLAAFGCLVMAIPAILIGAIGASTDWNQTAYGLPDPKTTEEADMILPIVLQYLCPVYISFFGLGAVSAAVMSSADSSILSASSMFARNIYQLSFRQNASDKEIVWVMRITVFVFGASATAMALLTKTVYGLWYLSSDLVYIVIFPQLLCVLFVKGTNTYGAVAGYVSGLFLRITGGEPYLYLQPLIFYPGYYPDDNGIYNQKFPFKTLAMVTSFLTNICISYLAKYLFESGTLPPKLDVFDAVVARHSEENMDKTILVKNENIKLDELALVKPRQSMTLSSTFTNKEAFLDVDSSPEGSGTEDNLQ
# Only a part is listed here, and it is no random draw. Some tests of the compounds listed are not included; inactive here does not mean inactive elsewhere. Active and inactive are the calls of the source.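 The calls were made as follows: active = initial fluorescence not abnormally high and integrated response B-score, plate-corrected, over 3 SD above library mean; inactive = the rest.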
# Biological target: High affinity choline transporter 1 (Homo sapiens) (UniProt Q9GZV3)
# Assay: CHT positive allosteric modulators, primary screen, cell-based, membrane potential dye, choline EC20 (AID 488977)
# Conditions: CHT-expressing cells, at 10 µM, LV-AA mutant CHT in HEK293 cells
row,SMILES,outcome
1,CCCCC(CC)C(=O)N1CCN(C/C=C/c2ccccc2)CC1 (stereo unspecified),inactive
